The list shows a part of the results, in another mix than the full data. Active and inactive are the calls of the source.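 The calls were made as follows: active = inhibition above that plate's mean sample inhibition plus 3 SD (cut at about 26% in these data); inactive = the rest.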
assay: nonselective Gq signaling inhibition in CHO cells – cell-based, fluorescence, Fluo-8 calcium dye, counter-screen for OX1R antagonist project, primary screen (AID 463079); details: parental CHO-K1, ATP-induced calcium, Fluo-8 fluorescence; at 5.6 µM; stronger effect = higher value;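 also: 0% = ATP-challenged DMSO wells and 100% = DMSO wells without ATP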
Method in brief: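 Material – parental CHO cells · Reagent – ATP stimulus · Compound – single nominal dose of 5.6 µM per compound · Detection – Fluo-8 fluorescence · Read-out basis – percent inhibition of calcium signal · Controls – ATP-challenged DMSO wells low, unchallenged DMSO wells high · Repeats – no replicates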

Row | SMILES | inhibition
1 | Fc1ccccc1NC1CCN(Cc2ccccc2)CC1 | inactive: 3.36%
2 | Cc1ccc(C(=O)NCC2(N3CCCCC3)CCCCC2)o1 | inactive: -11.6%
3 | COc1cc(OC)cc(C(=O)NCC2(N3CCCCC3)CCCCC2)c1 | inactive: -20.3%
4 | CN(C)c1ccc(C(=O)NCC2(N3CCCCC3)CCCCC2)cc1 | inactive: -6.84%
5 | O=C(NCC1(N2CCCCC2)CCCCC1)c1ccco1 | inactive: -13.5%
6 | CCN1CCC(Nc2cccc(F)c2)CC1 | inactive: -3.41%
7 | CCCOc1ccc(C(=O)NCC2(N(C)C)CCCCC2)cc1 | inactive: -11.2%
8 | O=C(O)C1(Nc2ccccc2)CCN(Cc2ccccc2)CC1 | inactive: 7.73%
9 | CC(C)(C)OC(=O)N1CCC(Nc2ccccc2)CC1 | inactive: -6.95%
10 | CN1CCC(Nc2ccc(F)c(Cl)c2)CC1 | inactive: 3.51%
11 | CCOc1ncccc1C(=O)NCC1(N2CCOCC2)CCCCC1 | inactive: -22.4%
12 | CCCOc1ccc(C)cc1CN(CCCl)CCCl | inactive: -6.15%
13 | CN1CCC(Nc2ccc(Cl)cc2)CC1 | inactive: -6.24%
14 | CCC(CO)(C(=O)OC1CN2CCC1CC2)c1ccccc1 (stereo not drawn) | inactive: -10.1%
15 | COc1cc(OC)cc(C(=O)NCC2(N3CCOCC3)CCCCC2)c1 | inactive: -9.93%
16 | COc1cccc(C(=O)N(c2cc(C)cc(C)c2)C2CCN(C(=O)OC(C)(C)C)CC2)c1 | inactive: -20.9%
17 | COc1ccc(C(=O)NCC2(N3CCOCC3)CCCCC2)cc1OC | inactive: -18.6%
18 | O=C(NCC1(N2CCOCC2)CCCCC1)c1cc(Br)ccc1Cl | inactive: -23.8%
19 | COc1cc(C(=O)NCC2(N3CCOCC3)CCCCC2)cc(OC)c1C | inactive: -13.6%
20 | CCc1cc(C(=O)NCC2(N3CCCCC3)CCCCC2)sc1C | inactive: -29.9%
21 | O=C(OC1CN2CCC1CC2)C1c2ccccc2C=Cc2ccccc21 (stereo not drawn) | inactive: -18.8%

Row | SMILES | inhibition
22 | N/C(=N\O)c1c(N)no[n+]1[O-] | inactive: -4.41%
23 | CCOC(=O)N1CCC(Nc2ccc(C)cc2)CC1 | inactive: 4.64%
24 | CC(C)(C)OC(=O)N1CCC(N(C(=O)c2ccccc2)c2ccc(Cl)cc2)CC1 | inactive: -28.2%
25 | N#Cc1ccc(C(=O)NCC2(N3CCCCC3)CCCCC2)cc1 | inactive: -18.7%
26 | CCCN1CCC(Nc2cc(OC)cc(OC)c2)CC1 | inactive: -15.4%
27 | c1ccc(CN2CCC(Nc3ccccc3)CC2)cc1 | inactive: -5.71%
28 | CN(C)C1(CNC(=O)c2cccc(C#N)c2)CCCCC1 | inactive: -2.23%
29 | O=C(NCC1(N2CCCCC2)CCCCC1)c1cccc([N+](=O)[O-])c1 | inactive: -18.5%
30 | N#CC1(Nc2ccccc2)CCN(CCc2ccccc2)CC1 | inactive: -15.1%
31 | CCN1CCC(Nc2ccc(Cl)cc2)CC1 | inactive: -0.31%
32 | O=C(NCC1(N2CCCCC2)CCCCC1)c1ccc(OC(F)F)cc1 | inactive: -10.4%
33 | CN1CCN(CCOC(=O)C(O)(c2ccccc2)c2ccccc2)CC1 | inactive: 0.36%
34 | COc1ccc(NC2CCN(C(=O)OC(C)(C)C)CC2)cc1 | inactive: 0.32%
35 | COc1cc(C(=O)NCC2(N3CCCCC3)CCCCC2)ccc1OC(F)F | inactive: -23.8%
36 | O=C(NCC1(N2CCOCC2)CCCCC1)c1cc(=O)[nH]c2ccccc12 | inactive: -2.42%
37 | O=C(NCC1(N2CCCCC2)CCCCC1)c1cccc(C(F)(F)F)c1 | inactive: -10%
38 | O=C(NCC1(N2CCOCC2)CCCCC1)c1cc(F)c(F)cc1Cl | inactive: -12%
39 | COc1cc(OC)c(C(=O)NCC2(N(C)C)CCCCC2)cc1OC | inactive: -15.3%
40 | CN(C)c1cccc(C(=O)NCC2(N3CCCCC3)CCCCC2)c1 | inactive: -15.5%
41 | COc1ccc(CN(CCCl)CCCl)cc1Cl | inactive: -16.8%
42 | CC(C)c1ccc(NC2CCN(C(=O)OC(C)(C)C)CC2)cc1 | inactive: -6.57%

Row | SMILES | inhibition
43 | CN1CCC(Nc2cccc(F)c2)CC1 | inactive: 7.8%
44 | O=C(NCC1(N2CCCCC2)CCCCC1)c1cncc(Br)c1 | inactive: -23.7%
45 | CSc1ccccc1C(=O)NCC1(N2CCCCC2)CCCCC1 | inactive: -38.5%
46 | O=C(NCC1(N2CCCCC2)CCCCC1)c1cccs1 | inactive: -13.1%
47 | O=C(NCC1(N2CCCCC2)CCCCC1)c1ccc(=O)[nH]c1 | inactive: -3.15%
48 | CC(C)(C)OC(=O)N1CCC(N(C(=O)c2ccccc2)c2ccc(F)cc2)CC1 | inactive: -21.5%
49 | COc1ccc(C(=O)NCC2(N3CCCCC3)CCCCC2)c(OC)c1OC | inactive: -12.4%
50 | COc1ccc(C(=O)NCC2(N3CCCCC3)CCCCC2)cc1 | inactive: -6.52%
51 | CCOC(=O)N1CCC(Nc2ccc(OC)cc2)CC1 | inactive: 0.06%
52 | COc1ccc(Cl)cc1C(=O)NCC1(N2CCOCC2)CCCCC1 | inactive: -11.6%
53 | N#CC1(Nc2ccccc2)CCN(Cc2ccccc2)CC1 | inactive: -6.17%
54 | O=C(NCC1(N2CCCCC2)CCCCC1)c1ccc(Cl)s1 | inactive: -20.9%
55 | O=C(OC1CN2CCC1CC2)C1c2ccccc2Oc2ccccc21 (stereo not drawn) | inactive: -16.1%
56 | O=C(NCC1(N2CCOCC2)CCCCC1)c1cc2ccccc2o1 | inactive: -11.9%
57 | Cc1cc(C)cc(N(C(=O)c2ccccc2)C2CCN(C(=O)OC(C)(C)C)CC2)c1 | inactive: 4.72%
58 | O=C(NCC1(N2CCCCC2)CCCCC1)c1ccc(Cl)nc1 | inactive: -28.1%
59 | COc1ccc(NC2CCN(CCc3ccccc3)CC2)c(OC)c1 | inactive: -9.01%
60 | O=C(NCC1(N2CCCCC2)CCCCC1)c1ccc(F)cc1 | inactive: -13.1%
61 | CCOc1ccc(C)cc1CN(CCCl)CCCl | inactive: -5.99%
62 | Cc1ccc(OCC(C)C)c(CN(CCCl)CCCl)c1 | inactive: -7.78%
63 | CCOC(=O)N1CCC(Nc2cccc(C)c2)CC1 | inactive: -1.34%

Source: PubChem BioAssay AID463079 (The Scripps Research Institute Molecular Screening Center, 2010)
